Test system: diabetic GK rats
Experiment: Modulation of glucose levels (glycaemia and oral glucose tolerance test) in diabetic GK rats
Type: in vivo, rat
Settings: triazine salt 100 mg/kg, rosiglitazone 5 mg/kg
Protocol: Biological Test: Modulation of Glucose Levels with the Combinations of the Invention with Insulin Sensitisers
The capacity of the compounds of the invention in combination with insulin-sensitising antidiabetic compounds to modify the blood glucose levels is evaluated in vivo in diabetic GK rats.
Alone or in combination, the antidiabetic agents are administered twice a day (bid) to the GK rats for 4 days. The oral glucose tolerance test (OGTT) is performed after the last day of treatment.
OGTT is performed in the morning after 3 hours of fasting by oral administration of a glucose charge of 2 g/kg of body mass. The blood samples are collected from the tail vein at 0; 10; 20; 30; 45; 60; 90 and 120 minutes to determine the glucose levels.
The two compounds were administered alone and in combination. The doses used for the hydrochloride salt of (+)-2-amino-3,6-dihydro-4-dimethylamino-6-methyl-1,3,5-triazine were 50 and 100 mg/kg PO twice daily for 4 days.

Q: Which “% decrease in AUC vs control” value (OGTT after 4 days of treatment PO bid) does the source give for `CN(CCOc1ccc(CC2SC(=O)NC2=O)cc1)c1ccccn1` (centres unmarked) [Rosiglitazone, rosiglitazone, reference compound] here?
A: Its value is −11.6%.

Q: And the “Glycaemia R under the curve (AUC)” value (OGTT, glucose 2 g/kg oral after 3 h fasting, 0-120 min, after 4 days of treatment PO bid)?
A: The value was 2954 +/− 150.

From patent publication US8791115B2, “Combination of triazine derivatives and insulin sensitisers” (Poxel SAS, priority 2006, dated 2014)
